One data set has as its system siRNA. Briefly: Bandshift (electro-mobility shift) assay, siRNA binding. The following applies: preparation containing free SMCC-protamine. The procedure: We analysed the siRNA binding capacity of these different conjugations by our routine bandshift assays (FIG. 40A-F).
The principle of genetic fusion between cell-determining targeting moiety and the electrostatic siRNA binder protamine such as presented in Song et al. was evaluated by applying this strategy to in a variation to target e.g. leukemic blasts (FIG. 48). The well-known anti-CD33 receptor antibody gemtuzumab was expressed with (FIG. 51) and without a direct genetic fusion to protamine as a siRNA carrier.

The subject of another data set is ASO. Briefly: Bandshift assay, antisense oligonucleotide binding. The following applies: one hour at room temperature or five minutes at 37° C. The text has this: To check if the antibody-protamine nanoparticle can also be used to transport single-stranded oligonucleotides, which are currently used as an alternative tool to knockdown gene expression. These synthetic antisense single-stranded oligonucleotides (“ASO”) are as short as siRNA and it is hypothesized that they bind to the αEGFR-mAB-protamine conjugate analogous to siRNA. We therefore performed a band shift assay using a control ASO and saw that 1 mol αEGFR-mAB-protamine conjugate can bind at least 8 to 32 mol of ASO when incubated for one hour at room temperature or five minutes at 37° C. (FIG. 12).

Data set [1] in a line: Particle size and zeta-potential by dynamic light scattering (DLS). The class given is physicochemical. The following applies: after a few hours, 0 to 24 hrs incubation at room temperature.
In a further data set the test system is A549 cells. In words: Colony formation assay, A549. The data set is classed as cell-based. The following applies: more than 50×SMCC-protamine / highest concentrations. An excerpt:
FIG. 20: Colony-formation assays in soft agar of NSCLC cells treated with different carriers of siRNA with and without free protamine. […] B: SK-LUI cells. […] Shown here are photos of colony assays and mean of three independent experiments+/−SD. Asterisks indicate significant differences (P<0.05, 2-sided T-test).
As a functional assay, we compared the efficiency of the different conjugation products to inhibit the colony formation of A549 cells upon knockdown of the oncogene KRAS. We also compared this to the equal amount of free SMCC-protamine without conjugated cetuximab to elucidate the impact of the unbound SMCC-protamine alone (FIG. 40 S-X). […] SMCC-protamine alone cannot induce inhibition of colony formation via KRAS knockdown at any concentration (FIG. 40 S-X).

For the next data set, the system named is RD cells. In words: Internalization of Alexa488-siRNA, FACS. The data set is classed as cell-based. The procedure: FIG. 6: Rhabdomyosarcoma (RMS) cell lines can be targeted by antibody-siRNA complexes. A: Expression of cell surface receptors EGFR and IGF1R was tested in two RMS cell lines, IGFR1R and EGFR is expressed on both cell lines. […] RH-30 in turn were marked by anti IGF1R directed GR11L-protamine (P/P) shuttled Alexa488 control siRNA.
To check targeting efficiency of our antibody constructs in RMS cell lines, we treated the ERMS EGFR^+ cell line RD with anti-EGFR antibody (cetuximab)-siRNA complexes and the ARMS IGF1R^+ cell line RH-30 with anti-IGF1R-siRNA complexes (FIG. 6). Both cell lines express IGF1R and EGFR to variable levels (FIG. 6A), and according to their highest expression, RD cells internalize preferentially anti-EGFR-Alexa488-siRNA (FIGS. 6 B and C, upper panels) whereas RH-30 cells internalize preferentially anti-IGF1R-Alexa488 siRNA complexes (FIG. 6 B, lower panel).

Read-outs that look alike come from different tables or passages of the source.

For the substance “cetuximab-protamine: anti-EGFR antibody cetuximab chemically conjugated via sulfo-SMCC to protamine, preparation containing free SMCC-protamine”, the “siRNA bound per mol of antibody carrier” value with siRNA was 8 mol; with siRNA (listed as anti-EGFR-mAB-protamine/free protamine (P/P) complex), “up to 8 mol”. Also, the “ASO bound per mol conjugate” value with ASO was in the range of 8 to 32 mol. In addition, the “size of assembled macrostructures (DLS)” value in data set [1] is around 500 nm. In the data set with A549 cells, the “unspecific toxicity in colony assay” value is recorded as “unspecifically toxic”. The “RD cells with internalized Alexa488-siRNA” value is “up to 90%” with RD cells and above 90% in the data set with RD cells (listed as Cetuximab-protamine (EGFR-mAB-P containing free SMCC-protamine (/P/P))).

For the origin of these results see US20240316213A1, “ANTIBODY-PROTAMINE FUSIONS AS TARGETING COMPOUNDS OF A PROTAMINE-BASED NANOPARTICLE” (Universität Münster, priority 2021, published 2024).
